Results from BindingDB's records for doi:10.1021/acs.jmedchem.0c00262 (University of Leeds, 2020).

Experiment: Antagonist activity at GP6 in human platelet assessed as reduction in CRP-induced platelet-aggregation preincubated for 60 secs followed by collagen stimulation by light transmission aggregometry

## CCCCc1nc(Cl)c(CO)n1Cc1ccc(-c2ccccc2-c2nnn[nH]2)cc1 [NSC_3961]
  IC50: 4 µM
